Test results from US20100029657A1, “Bridged, Bicyclic Heterocyclic or Spiro Bicyclic Heterocyclic Derivatives of Pyrazolo[1, 5-A]Pyrimidines, Methods for Preparation and Uses Thereof” (Wyeth, priority 2008, published 2010).

Chains of the proteins cited; added tags and fusions are not shown.
UniProt P15056, whole entry: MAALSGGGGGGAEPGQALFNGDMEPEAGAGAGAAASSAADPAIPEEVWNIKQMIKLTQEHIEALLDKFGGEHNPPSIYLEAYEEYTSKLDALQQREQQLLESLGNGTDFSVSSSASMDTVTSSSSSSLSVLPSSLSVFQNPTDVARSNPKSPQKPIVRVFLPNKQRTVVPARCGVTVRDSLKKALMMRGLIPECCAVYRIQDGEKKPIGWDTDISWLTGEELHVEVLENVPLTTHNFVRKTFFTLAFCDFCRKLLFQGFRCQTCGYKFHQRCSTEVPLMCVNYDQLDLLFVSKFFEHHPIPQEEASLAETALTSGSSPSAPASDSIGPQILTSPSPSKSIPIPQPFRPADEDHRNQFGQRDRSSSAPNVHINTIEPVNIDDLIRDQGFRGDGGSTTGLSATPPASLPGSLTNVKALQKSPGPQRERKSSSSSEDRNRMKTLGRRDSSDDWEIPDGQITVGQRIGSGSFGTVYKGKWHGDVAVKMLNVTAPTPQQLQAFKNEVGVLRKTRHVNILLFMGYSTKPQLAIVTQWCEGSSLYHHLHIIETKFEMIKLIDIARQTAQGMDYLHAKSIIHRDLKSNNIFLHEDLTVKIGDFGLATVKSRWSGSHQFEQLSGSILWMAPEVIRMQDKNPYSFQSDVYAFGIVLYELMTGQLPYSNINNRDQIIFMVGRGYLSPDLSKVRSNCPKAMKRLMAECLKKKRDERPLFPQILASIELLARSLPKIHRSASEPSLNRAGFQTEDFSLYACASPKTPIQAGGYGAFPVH

Target: T1, Flag/GST-tagged recombinant human B-Raf (Homo sapiens, UniProt P15056)
T1 construct: Flag; GST; made in house; host or cells: Sf9 insect cells (B-Raf); E. coli (MEK1-GST)
Assay: B-Raf kinase assay (phosphorylation of GST-MEK1, phospho-MEK1 antibody/Europium detection)
Assay type: biochemical
Details: B-Raf IC50 Data for compounds of Formula A

For `CS(=O)(=O)N1C2CCC1CC(c1ccnc3c(-c4cccc5[nH]ncc45)c(-c4ccncc4)nn13)C2` (stereo not shown) [Example 114, 3-(1H-indazol-4-yl)-7-[8-(methylsulfonyl)-8-azabicyclo[3.2.1]oct-3-yl]-2-pyridin-4-ylpyrazolo[1,5-a]pyrimidine], the pIC50 was 8.31.

pIC50: −log10 of the molar value.
